In the data set the target is AhR (Homo sapiens, UniProt P35869). An excerpt:
AhR Direct Luciferase Reporter Assay in HepG2 Cells
A stable cell line (HepG2 CYP1A1-LUC) was used in which part of the promoter region of the human CYP1A1 gene is stably integrated into the genome of human HepG2 hepatocytes (DSZM #ACC 180) in front of a Photinus pyralis Firefly Luciferase gene. A 1210 bp fragment comprising part of the human CYP1A1 promoter was isolated via SacI and BgIII restriction digestion from Lightswitch Clone S714555 (SwitchGearGenomics) and inserted between the SacI and BgIII sites in pGL4.30 (Promega #E8481) in front of the Firefly Luciferase gene. […]
In typical reporter assays performed with this cell line, cells are grown in 96-well plates and AhR modulators are titrated into the growth medium in serial dilutions in RPMI-1640 Medium (Sigma #R7509) supplemented with 8,6% fetal calf serum (Sigma #F7524) and containing either no exogenous AhR agonist or 10 nM of the potent AhR agonist VAF347 (Calbiochem #182690). Cells are further cultivated for 18 hours and luciferase activities are determined from extracts of cells in buffers containing D-Luciferine and ATvP using a LUMIstar Optima microplate Luminometer from BMG Labtech.

By UniProt entry, the sequences of proteins in these tests, tags left out. Residues count along the entry.
UniProt P35869, 11-848 limits assumed: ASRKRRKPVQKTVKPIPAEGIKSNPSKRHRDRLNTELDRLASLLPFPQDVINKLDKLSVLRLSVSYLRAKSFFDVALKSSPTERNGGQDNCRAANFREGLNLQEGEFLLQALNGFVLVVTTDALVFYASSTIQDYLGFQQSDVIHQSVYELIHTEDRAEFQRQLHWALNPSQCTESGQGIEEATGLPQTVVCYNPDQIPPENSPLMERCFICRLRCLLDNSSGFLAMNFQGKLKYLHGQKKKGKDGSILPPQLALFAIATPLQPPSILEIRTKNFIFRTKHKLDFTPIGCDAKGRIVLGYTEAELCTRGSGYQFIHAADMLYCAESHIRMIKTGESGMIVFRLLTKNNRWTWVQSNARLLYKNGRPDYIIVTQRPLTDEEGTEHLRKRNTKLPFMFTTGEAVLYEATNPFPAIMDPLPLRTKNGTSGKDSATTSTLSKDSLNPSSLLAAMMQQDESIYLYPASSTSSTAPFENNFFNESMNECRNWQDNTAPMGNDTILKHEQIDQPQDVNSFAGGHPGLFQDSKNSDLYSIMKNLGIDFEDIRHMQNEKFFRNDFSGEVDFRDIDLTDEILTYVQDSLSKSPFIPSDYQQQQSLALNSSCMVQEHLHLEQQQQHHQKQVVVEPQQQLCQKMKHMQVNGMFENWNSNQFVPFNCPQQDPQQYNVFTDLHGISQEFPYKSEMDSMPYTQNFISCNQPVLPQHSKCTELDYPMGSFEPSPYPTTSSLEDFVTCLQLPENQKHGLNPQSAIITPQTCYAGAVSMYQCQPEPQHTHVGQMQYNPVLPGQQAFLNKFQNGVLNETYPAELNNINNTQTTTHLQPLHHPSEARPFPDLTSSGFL

Bounds are passed on as bounds.

Consider `Cn1ncnc1C(=O)Nc1ccc2cc(-c3cccc(C(F)F)c3)[nH]c2n1`, for which the IC50 was below 100 nM.
